Here are results for three compounds from patent publication US20090137662A1, “SYNERGY OF DOPAMINE D2 AND ADENOSINE A2 RECEPTORS ACTIVATES PKA SIGNALING VIA BETA/GAMMA DIMERS” (The Regents of the University of California, priority 2002, published 2009).

Test [1] deals with PKA Cα. The test can be described thus: PKA Cα translocation in primary cultures of hippocampal neurons. Particulars: spiperone 10 μM, BW A1434U 10 μM, DPCPX 100 nM, DMPX 10 μM 30 min, Rp-cAMPS 20 μM 1.5 hours, PTX 50 ng/ml or Ad5QEHA overnight.
Test [2] relates to PKA Cα. The test can be described thus: PKA Cα translocation in NG108-15/D2 cells (immunocytochemistry, cell fractionation/western). Particulars: preincubation: spiperone 10 μM 30 min, PTX 50 ng/ml overnight, Rp-cAMPS 20 μM 1.5 hr, BW A1434U 10 μM 30 min, Ad5βARK1/Ad5QEHA/Ad5SKEE transfection; for effect on NPA-induced PKA Cα translocation: 50 nM NPA 10 min; for effect on ethanol-induced PKA Cα translocation: 100 mM ethanol 10 min.

For test [3], the system named is CRE-mediated gene expression. In words: CRE-luciferase reporter assay in NG108-15/D2 cells. Particulars: spiperone 10 μM, Rp-cAMPS 20 μM, BW A1434U 10 μM 30 min, PTX 50 ng/ml or QEHA overnight; for effect on NPA-dependent increases in luciferase activity / CRE-mediated gene expression: 50 nM NPA 10 min; for effect on ethanol-induced luciferase expression / CRE-mediated gene expression: 100 mM ethanol 10 min. For orientation: Reporter assays use an easily measured gene product as a stand-in for the process of interest.

Structures are written as SMILES.

Regarding `C#CCn1c(=O)c2c(ncn2C)n(C)c1=O` [DMPX], in the test on PKA Cα [1], the “effect on ethanol-induced PKA Cα translocation” value is given as “prevents”.
Consider `Nc1ncnc2c1ncn2[C@@H]1O[C@@H]2CO[P@@](O)(=S)O[C@H]2[C@H]1O` [Rp-cAMPS], for which, in the test with PKA Cα [2], the “effect on NPA-induced PKA Cα translocation” value is “blocks” and the “effect on ethanol-induced PKA Cα translocation” value was “blocks”. In the test with PKA Cα [1], the “effect on ethanol-induced PKA Cα translocation” value is on record as “prevent”. Further, in test [3], the “effect on NPA-dependent increases in luciferase activity / CRE-mediated gene expression” value was “blocked” and the “effect on ethanol-induced luciferase expression / CRE-mediated gene expression” value was “blocked”.
Regarding `O=C(CCCN1CCC2(CC1)C(=O)NCN2c1ccccc1)c1ccc(F)cc1` [spiperone], in the test on PKA Cα [2], the “effect on NPA-induced PKA Cα translocation” value was “blocked” and the “effect on ethanol-induced PKA Cα translocation” value is on record as “no effect”. Also, the “effect on ethanol-induced PKA Cα translocation” value in the test on PKA Cα [1] is recorded as “no effect”. In test [3], the “effect on NPA-dependent increases in luciferase activity / CRE-mediated gene expression” value is recorded as “blocks” and the “effect on ethanol-induced luciferase expression / CRE-mediated gene expression” value is “no effect”.
